Assay results from PubChem BioAssay (NCI).
Some tests of the compounds listed are not included; inactive here does not mean inactive elsewhere.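 48-hour exposure; five concentrations; linearly interpolated endpoints. At the GI50, growth is halved. TGI marks complete inhibition of growth.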

What was measured:
Experiment in all cases: NCI tumour cell line growth inhibition, 48 h
786-0 renal = test system: 786-0 renal
A549 NSCLC = test system: A549 NSCLC
ACHN renal = test system: ACHN renal
BT-549 breast = test system: BT-549 breast
CAKI-1 renal = test system: CAKI-1 renal
CCRF-CEM leukemia = test system: CCRF-CEM leukemia
COLO 205 colon = test system: COLO 205 colon
DU-145 prostate = test system: DU-145 prostate
EKVX NSCLC = test system: EKVX NSCLC
HCC-2998 colon = test system: HCC-2998 colon
HCT-116 colon = test system: HCT-116 colon
HCT-15 colon = test system: HCT-15 colon
HL-60(TB) leukemia = test system: HL-60(TB) leukemia
HOP-62 NSCLC = test system: HOP-62 NSCLC
HT29 colon = test system: HT29 colon
IGROV1 ovarian = test system: IGROV1 ovarian
K-562 leukemia = test system: K-562 leukemia
KM12 colon = test system: KM12 colon
LOX IMVI melanoma = test system: LOX IMVI melanoma
M14 melanoma = test system: M14 melanoma
MALME-3M melanoma = test system: MALME-3M melanoma
MCF7 breast = test system: MCF7 breast
MDA-MB-231 breast = test system: MDA-MB-231 breast
MDA-MB-435 = test system: MDA-MB-435
MDA-N = test system: MDA-N
MOLT-4 leukemia = test system: MOLT-4 leukemia
NCI-H226 lung = test system: NCI-H226 lung
NCI-H23 lung = test system: NCI-H23 lung
NCI-H522 lung = test system: NCI-H522 lung
NCI/ADR-RES ovarian = test system: NCI/ADR-RES ovarian
OVCAR-3 ovarian = test system: OVCAR-3 ovarian
OVCAR-5 ovarian = test system: OVCAR-5 ovarian
OVCAR-8 ovarian = test system: OVCAR-8 ovarian
PC-3 prostate = test system: PC-3 prostate
RPMI-8226 leukemia = test system: RPMI-8226 leukemia
RXF 393 renal = test system: RXF 393 renal
SF-268 CNS = test system: SF-268 CNS
SF-295 CNS = test system: SF-295 CNS
SF-539 CNS = test system: SF-539 CNS
SK-MEL-28 melanoma = test system: SK-MEL-28 melanoma
SK-MEL-5 melanoma = test system: SK-MEL-5 melanoma
SK-OV-3 ovarian = test system: SK-OV-3 ovarian
SN12C renal = test system: SN12C renal
SNB-19 CNS = test system: SNB-19 CNS
SNB-75 CNS = test system: SNB-75 CNS
SR leukemia = test system: SR leukemia
SW-620 colon = test system: SW-620 colon
T-47D breast = test system: T-47D breast
TK-10 renal = test system: TK-10 renal
U251 CNS = test system: U251 CNS
UACC-257 melanoma = test system: UACC-257 melanoma
UACC-62 melanoma = test system: UACC-62 melanoma
UO-31 renal = test system: UO-31 renal

Structure (SMILES): C=C(C)C#CC(O)(C(=O)OC1CN2CCC1CC2)C(C)C (stereo unspecified)
- GI50 (786-0 renal): > 100 µM
- TGI (786-0 renal): > 100 µM
- GI50 (A549 NSCLC): > 100 µM
- TGI (A549 NSCLC): > 100 µM
- GI50 (ACHN renal): > 100 µM
- TGI (ACHN renal): > 100 µM
- GI50 (BT-549 breast): > 100 µM
- TGI (BT-549 breast): > 100 µM
- GI50 (CAKI-1 renal): > 100 µM
- TGI (CAKI-1 renal): > 100 µM
- GI50 (CCRF-CEM leukemia): > 100 µM
- TGI (CCRF-CEM leukemia): > 100 µM
- GI50 (COLO 205 colon): > 100 µM
- TGI (COLO 205 colon): > 100 µM
- GI50 (DU-145 prostate): > 100 µM
- TGI (DU-145 prostate): > 100 µM
- GI50 (EKVX NSCLC): > 100 µM
- TGI (EKVX NSCLC): > 100 µM
- GI50 (HCC-2998 colon): > 100 µM
- TGI (HCC-2998 colon): > 100 µM
- GI50 (HCT-116 colon): > 100 µM
- TGI (HCT-116 colon): > 100 µM
- GI50 (HCT-15 colon): > 100 µM
- TGI (HCT-15 colon): > 100 µM
- GI50 (HL-60(TB) leukemia): > 100 µM
- TGI (HL-60(TB) leukemia): > 100 µM
- GI50 (HOP-62 NSCLC): > 100 µM
- TGI (HOP-62 NSCLC): > 100 µM
- GI50 (HT29 colon): > 100 µM
- TGI (HT29 colon): > 100 µM
- GI50 (IGROV1 ovarian): > 100 µM
- TGI (IGROV1 ovarian): > 100 µM
- GI50 (K-562 leukemia): > 100 µM
- TGI (K-562 leukemia): > 100 µM
- GI50 (KM12 colon): > 100 µM
- TGI (KM12 colon): > 100 µM
- GI50 (LOX IMVI melanoma): > 100 µM
- TGI (LOX IMVI melanoma): > 100 µM
- GI50 (M14 melanoma): > 100 µM
- TGI (M14 melanoma): > 100 µM
- GI50 (MALME-3M melanoma): > 100 µM
- TGI (MALME-3M melanoma): > 100 µM
- GI50 (MCF7 breast): > 100 µM
- TGI (MCF7 breast): > 100 µM
- GI50 (MDA-MB-231 breast): > 100 µM
- TGI (MDA-MB-231 breast): > 100 µM
- GI50 (MDA-MB-435): > 100 µM
- TGI (MDA-MB-435): > 100 µM
- GI50 (MDA-N): > 100 µM
- TGI (MDA-N): > 100 µM
- GI50 (MOLT-4 leukemia): > 100 µM
- TGI (MOLT-4 leukemia): > 100 µM
- GI50 (NCI-H226 lung): > 100 µM
- TGI (NCI-H226 lung): > 100 µM
- GI50 (NCI-H23 lung): > 100 µM
- TGI (NCI-H23 lung): > 100 µM
- GI50 (NCI-H522 lung): > 100 µM
- TGI (NCI-H522 lung): > 100 µM
- GI50 (NCI/ADR-RES ovarian): > 100 µM
- TGI (NCI/ADR-RES ovarian): > 100 µM
- GI50 (OVCAR-3 ovarian): > 100 µM
- TGI (OVCAR-3 ovarian): > 100 µM
- GI50 (OVCAR-5 ovarian): > 100 µM
- TGI (OVCAR-5 ovarian): > 100 µM
- GI50 (OVCAR-8 ovarian): > 100 µM
- TGI (OVCAR-8 ovarian): > 100 µM
- GI50 (PC-3 prostate): > 100 µM
- TGI (PC-3 prostate): > 100 µM
- GI50 (RPMI-8226 leukemia): > 100 µM
- TGI (RPMI-8226 leukemia): > 100 µM
- GI50 (RXF 393 renal): > 100 µM
- TGI (RXF 393 renal): > 100 µM
- GI50 (SF-268 CNS): > 100 µM
- TGI (SF-268 CNS): > 100 µM
- GI50 (SF-295 CNS): > 100 µM
- TGI (SF-295 CNS): > 100 µM
- GI50 (SF-539 CNS): > 100 µM
- TGI (SF-539 CNS): > 100 µM
- GI50 (SK-MEL-28 melanoma): > 100 µM
- TGI (SK-MEL-28 melanoma): > 100 µM
- GI50 (SK-MEL-5 melanoma): > 100 µM
- TGI (SK-MEL-5 melanoma): > 100 µM
- GI50 (SK-OV-3 ovarian): > 100 µM
- TGI (SK-OV-3 ovarian): > 100 µM
- GI50 (SN12C renal): > 100 µM
- TGI (SN12C renal): > 100 µM
- GI50 (SNB-19 CNS): > 100 µM
- TGI (SNB-19 CNS): > 100 µM
- GI50 (SNB-75 CNS): > 100 µM
- TGI (SNB-75 CNS): > 100 µM
- GI50 (SR leukemia): > 100 µM
- TGI (SR leukemia): > 100 µM
- GI50 (SW-620 colon): > 100 µM
- TGI (SW-620 colon): > 100 µM
- GI50 (T-47D breast): > 100 µM
- TGI (T-47D breast): > 100 µM
- GI50 (TK-10 renal): > 100 µM
- TGI (TK-10 renal): > 100 µM
- GI50 (U251 CNS): > 100 µM
- TGI (U251 CNS): > 100 µM
- GI50 (UACC-257 melanoma): > 100 µM
- TGI (UACC-257 melanoma): > 100 µM
- GI50 (UACC-62 melanoma): > 100 µM
- TGI (UACC-62 melanoma): > 100 µM
- GI50 (UO-31 renal): > 100 µM
- TGI (UO-31 renal): > 100 µM
